Assay results taken from patent US10335503B2, “Compound that specifically binds to AMPA receptor” (Public University Corporation Yokohama City University, priority 2015, dated 2019).

Amino acid sequences for entries named in this document (tags omitted).
UniProt P30411, whole entry: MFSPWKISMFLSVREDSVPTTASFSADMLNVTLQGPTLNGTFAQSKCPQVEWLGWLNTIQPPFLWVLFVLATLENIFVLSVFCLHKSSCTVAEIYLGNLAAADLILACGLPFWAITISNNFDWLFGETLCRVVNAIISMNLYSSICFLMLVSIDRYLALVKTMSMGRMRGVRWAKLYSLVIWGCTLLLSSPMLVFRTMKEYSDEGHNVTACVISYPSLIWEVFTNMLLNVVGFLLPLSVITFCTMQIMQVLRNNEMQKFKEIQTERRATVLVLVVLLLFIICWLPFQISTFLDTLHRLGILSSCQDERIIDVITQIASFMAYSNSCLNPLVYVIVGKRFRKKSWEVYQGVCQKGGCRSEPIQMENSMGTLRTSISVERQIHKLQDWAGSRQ

Assays:
Settings in all cases: Positive substance, concentration not given
Angiotensin AT2 = biological target: T1, Angiotensin AT2 (Homo sapiens, UniProt P50052); assay: Receptor binding panel: Angiotensin AT2
T1 sequence (P50052 1-363): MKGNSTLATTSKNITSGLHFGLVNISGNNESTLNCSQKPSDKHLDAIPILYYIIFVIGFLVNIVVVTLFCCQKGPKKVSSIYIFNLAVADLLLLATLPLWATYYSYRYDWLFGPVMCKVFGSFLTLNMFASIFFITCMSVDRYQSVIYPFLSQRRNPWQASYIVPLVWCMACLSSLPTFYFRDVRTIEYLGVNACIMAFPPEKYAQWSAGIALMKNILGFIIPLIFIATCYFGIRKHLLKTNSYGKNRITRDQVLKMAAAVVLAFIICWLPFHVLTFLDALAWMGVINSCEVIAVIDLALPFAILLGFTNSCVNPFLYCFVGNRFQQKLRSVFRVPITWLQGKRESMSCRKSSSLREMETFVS

Angiotensin AT1 = Angiotensin AT1 (Homo sapiens, UniProt P30556); assay: Receptor binding panel: Angiotensin AT1
Bradykinin B2 = Bradykinin B2 (Homo sapiens, UniProt P30411); assay: Receptor binding panel: Bradykinin B2

Row | Substance | Inhibition (%) (Angiotensin AT2) | Inhibition (%) (Angiotensin AT1) | Inhibition (%) (Bradykinin B2)
1 | Angiotensin II [reference compound] | 100.00 | 100.00 | –
2 | HOE140 [reference compound] | – | – | 99.47
